Data as given in ChEMBL document CHEMBL4387756, “Discovery of DC_H31 as potential mutant IDH1 inhibitor through NADPH-based high throughput screening” (Bioorg Med Chem, 2019).

Tested on: HT-1080
Experiment: Antiproliferation activity against human HT1080 cells assessed as reduction in cell viability after 72 hrs by Cell Titer-Glo luminescent assay
Format: functional, cell-based

## CC(C)(C)c1cc(C(c2ccccn2)N2CCOCC2)cc(C(C)(C)C)c1O (stereo unspecified)
  Activity: Dose-dependent effect
